The text below walks through data of patent US10677782B2, “Methods of determining interferon having direct inhibitory effects on tumors and uses thereof” (SUPERLAB FAR EAST LIMITED, priority 2013, dated 2020).

The test system of assay [1] is procaspase-3, cleaved caspase-3, procaspase-8, cleaved caspase-8, PARP in A549 cells. The assay can be described thus: Apoptosis-related molecular markers by Western Blot. It is filed as cell-based, human. Particulars: 24 hr or 48 hr; interferons at 10 mcg/ml. From the text: (§1) Thereafter, apoptosis-related molecular markers were monitored by Western Blot. The primary antibodies used were mouse monoclonal anti-beta-tubulin (1:2000, Cat #: CW0098A) and mouse monoclonal anti-GAPDH (1:2000, Cat #: CW0100A) (Kangwei Biotechnology, China); mouse monoclonal anti-PARP (1:1000, Cat #: se-2007, Santa Cruz Biotechnology, Inc.); rabbit monoclonal anti-procaspase 3 (1:1000, Cat #: 9665), and rabbit polyclonal anti-cleaved caspase 3 (1:1000, Cat #: 9661) (Cell Signaling Technology, USA); goat polyclonal anti-procaspase 8 (1:1000, Cat #: sc-6136, Santa Cruz Biotechnology, Inc); rabbit monoclonal anti-cleaved caspase 8 (1:1000, Cat #: 9496) (Cell Signaling Technology, USA).
(In general: In western blotting, separated proteins are transferred to a membrane and probed.)

Assay [2] has as its system procaspase-3, cleaved caspase-3, procaspase-8, cleaved caspase-8, PARP in SW620 cells. Described as above. The assay is classed as cell-based, human. Particulars: 24 hr or 48 hr; interferons at 10 mcg/ml.
Text: as §1

A further assay concerns colon cancer SW620 cells. The assay can be described thus: Cell migration assay across microporous membranes. It is filed as cell-based, human. Particulars: 10 μg/ml, 24 hr treatment; vs Mock. The protocol: (§2) The cell migration assay was performed using 8 μm cell culture inserts in 24-well plates (Becton-Dickinson Biosciences, NJ, USA). Warm (37° C.) bicarbonate based culture medium without FBS was added to the interior of the inserts and to the bottoms of the wells, and were allowed to rehydrate for 2 hr in humidified tissue culture incubator at 37° C. in 5% CO2. After rehydration, the culture medium was carefully removed. […] In the lower compartment of the 24-well plates were placed 500 μl of complete medium with 10% FBS. After 24 hr at 37° C. under the regular culture conditions, the non-migrated cells in the upper part of the chamber membranes were removed with a cotton swab. The lower part of the culture inserts were fixed with 4% paraformaldehyde and stained with 2% crystal violet. The number of migrated cells on the opposite side of the chamber membranes from where the cells were placed was counted in each of the triplicate wells. Each experiment was repeated at least two times, each time with triplicate wells.

The test system of the next assay is lung cancer A549 cells. The assay can be described thus: Cell migration assay across microporous membranes. The assay is classed as cell-based, human. Particulars: 10 μg/ml, 24 hr treatment; untreated Mock about 30. The protocol:
as §2

In the next assay the test system is SW620 tumor cells. The assay can be described thus: Cell viability over 1-6 days, MTT assay. It is filed as cell-based, human. Particulars: 10 μg/ml. How it is done:
The cell survival rate was evaluated in a standard MTT assay (3-(4,5-dimethylthiazol-2-yl)-2,5-diphenyltetrazolium bromide assay, Sigma, St. Louis, Mo.). For the assay, about 20 μl MTT (at […]) was added to each well. The cells were incubated at 37° C. for 4 hr. After that, the supernatant of each well was drawn off carefully and then an equal volume (150 microliter) of dimethyl sulfoxide (DMSO) was added to each well and mixed thoroughly on a shaker for 15 min. The absorbance from the plates was read at 595 nm with a Thermo Scientific Microplate Reader (Thermo Fisher Scientific Inc., Lowell, Mass.). The relative cell viability was calculated as follows: Cell viability=(Treated group(OD595) minus blank(OD595))/(Control group(OD595) minus blank(OD595))×100%.
On the technique in general: Tetrazolium dyes change colour on reduction, which living cells bring about.

Assay [3] has as its system beta-catenin protein level in SW480 cells. Description: Beta-catenin protein level by Western Blot. It is filed as cell-based, human. Conditions: 10 mcg/ml, 24 hr, 48 hr, or 72 hr. How it is done:
(§3) Cancer cells, A549 and Sw480, were cultured to about 85% confluency and put into 6 well plates. The cells were treated with either 10 mcg/ml IFNα-2b or rSIFN-co or left untreated as control (Mock) for 24 hr, 48 hr, or 72 hr, respectively. After treatment, the cells were harvested for Western Blot to detect the beta-catenin protein level, using its specific antibody, with GAPDH as endogenous loading control. The experiment was conducted in triplicate.
(§4) To determine the expression of various proteins, cells were harvested from the plates and total cellular protein were extracted using extraction reagents (Cat #: P0013) according to the manufacturer's protocol (Beyotime, China). The total protein concentration was determined by the Lowry Protein Assay kit (Bio-Rad, USA). Total proteins were separated by sodium dodecylsulfate-polyacrylamide gel electrophoresis (SDS-PAGE) on 10%-12% gel and transferred to 0.22 or 0.45 μm PVDF membranes (Millipore Corporation, Billerica, Mass., USA). The membranes were blocked with 5% skimmed milk, bovine serum albumin, 10 mmol/L Tris-HCl at pH 8.0, 150 mmol/L NaCl, and 0.05% Tween 20 overnight at 4° C. […] Blots were visualized using Luminescence/Fluorescence Imaging LAS4000 System (GE Healthcare Life Sciences, USA) with super signal west pico chemiluminescent substrate kit (Thermo scientific, USA). […]

Assay [4] concerns beta-catenin protein level in A549 cells. The assay can be described thus: Beta-catenin protein level by Western Blot. The assay is classed as cell-based, human. Particulars: 10 mcg/ml, 24 hr, 48 hr, or 72 hr. The protocol:
as §3, §4

The subject of assay [5] is Human Colon Cancer HT-29 Xenografts. The assay can be described thus: Human colon cancer HT-29 xenografts in nude mice (Example 3). It is filed as in vivo. Conditions: 0.15 mg/mouse i.t. every other day. How it is done: Before commencement of this study, the xenografts were passaged twice in nude mice. Under sterile conditions, well-grown tumors were cut into 1.5 mm^3 fragments and one such fragment was injected by trocar needle into the right flank of each study animal. […] Individual tumor size (length and width) was measured twice per week with microcalipers. Tumor volume (V) was calculated using the formula: V=(length×width^2)/2. Individual relative tumor volume (RTV) was calculated using the formula: RTV=Vt/V0, where Vt is the tumor volume on the day of measurement and V0 is the tumor volume on the day of first treatment. Therapeutic effect of the test article or control article was expressed in terms of TIC (%), using the formula: TIC (%) (mean RTV of the treated group/mean RTV of the control group)×100%; and in terms of % Inhibition, using the formula: % Inhibition=100%−T/C %.
Then, 1.5 mm^3 fragments were prepared for s.c. implantation into the test animals.
(Xenograft models place foreign cells or tissue in a host animal.)

For orientation: % Inhibition means the share of the control response that was lost under treatment. Read a high % Inhibition as strong suppression. For “IFN alpha-2b: Interferon alpha-2b comparator, from Shanghai Hua-xin High Biotechnology / Huiyang Life Science and Technology Corp.”, the “level of apoptosis-related molecular markers (procaspase-3, procaspase-8, PARP, cleaved caspase-3, cleaved caspase-8)” value in assay [1] is given as “neither of the interferons, IFN alpha-2b nor rSIFN-co, caused any reduction in the level of procaspase-3 or procaspase-8 or PARP, or induced any enhancement in the level of cleaved caspase-3 or cleaved caspase-8”. In addition, in assay [2], the “level of apoptosis-related molecular markers (procaspase-3, procaspase-8, PARP, cleaved caspase-3, cleaved caspase-8)” value is “neither of the interferons, IFN alpha-2b nor rSIFN-co, caused any reduction in the level of procaspase-3 or procaspase-8 or PARP, or induced any enhancement in the level of cleaved caspase-3 or cleaved caspase-8”. For the same substance, in the assay on colon cancer SW620 cells, the tumor cell migration result was “enhancement of tumor cell migration”. Also, the “mean number of migrating cells per field” value with lung cancer A549 cells was “about 110 cells per field”. For the same substance, in the assay with SW620 tumor cells, the “cell viability, time dependent effect” value is on record as “little time-dependent effect, if any”. In assay [3], the beta-catenin protein level result is listed as “did not cause any apparent decrease”. The beta-catenin protein level entry in assay [4] is listed as “did not cause any apparent decrease”. Further, in assay [5] (day 0, start of treatment), the “TV (mm^3, mean ± SD) (D0)” value is 128 ± 44 mm^3. In addition, in assay [5] (day 28), the “% Inhibition” value was 25.56%; the “RTV (mean ± SD)” value was 6.26±1.43; the “T/C (%)” value stood at 74.44%; the “TV (mm^3, mean ± SD) (D28)” value came out at 831 ± 420 mm^3. For the same substance, in assay [5] (day 28, listed as IFNalpha-2b), the “RTV (mean ± SD)” value was 6.26 ± 1.43.
